Ab-14 heavy chain CDR variants: yeast mating affinities

From the AlphaSeq antibody data of Engelhart et al. 2022 (doi:10.1038/s41597-022-01779-4), copy in the FLAb collection.

Target: peptide PDVDLGDISGINAS, taken from heptad repeat 2 (HR2) of SARS-CoV-2 spike.

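AAYL49 was designed without a model: most single CDR substitutions and a random sample of double and triple ones. The scFvs were displayed on barcoded MATa yeast, the peptide on MATalpha yeast. After mating in shaken culture at 30 °C for 16 h, diploids were selected and their barcode pairs sequenced. The ratio of observed to expected reads was calibrated, replicate by replicate, on BCL2-family standards whose Kd was known from biolayer interferometry. Mating was done three times.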

Each scFv is VH, the linker GGGGSGGGGSGGGGS, VL, as in the parent Ab-14, and differs from it in the CDRs of the heavy chain only.
VH: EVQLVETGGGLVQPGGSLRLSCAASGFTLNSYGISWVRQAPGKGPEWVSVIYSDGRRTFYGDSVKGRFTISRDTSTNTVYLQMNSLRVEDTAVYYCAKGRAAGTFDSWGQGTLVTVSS
VL: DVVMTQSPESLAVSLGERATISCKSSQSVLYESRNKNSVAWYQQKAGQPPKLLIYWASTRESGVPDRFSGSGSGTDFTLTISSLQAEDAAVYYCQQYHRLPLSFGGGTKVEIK

Positions count from residue 1 of the parent VH; R57N puts N in place of R.
All variants listed here change R57 of the VH, counted from its first residue.
Numbers give log10(Kd / nM), so 0 is 1 nM and 3 is 1 µM. Smaller is tighter.
Replicates are averaged; those with no signal do not enter the mean.
"nd" marks a missing value. The strain was present, yet no cells mated with the target were sequenced in that replicate, which points to weak or no binding.

Variant R57N Y60R K65M showed nd, 4.13, nd. For R57L Y60W G103M, the assay gave 5.88, 3.90, nd (mean 4.89). Variant S31D R57Q A101Q gave 1.35, 1.45, 1.30 (mean 1.36). With L29D R56M R57F the result was nd, nd, nd. Variant R57E gave nd, nd, nd. For R56D R57L S107F, the assay gave nd, nd, nd. Variant S35C R57N Y60Q showed nd, nd, nd.

Variant S35I R57V G61E gave nd, nd, nd. With S53G R57V V64F the result was nd, nd, nd. Variant N30M S35N R57K showed nd, 3.75, nd. With T28Q R57K S107Y the result was nd, 2.89, 2.65 (mean 2.77). For F27N S53N R57W, the assay gave nd, nd, 5.94. Variant G55E R57D K65D gave nd, nd, nd. Variant R57M R100K G103E showed nd, 4.95, nd.

Variant S35R I51T R57D showed nd, nd, nd. For R57V D62A K65E, the assay gave 5.86, 4.10, 3.57 (mean 4.51). With D54S R57W S63T the result was 3.63, nd, nd. For Y32I R57H F59M, the assay gave nd, nd, nd. For G26Q S53A R57Y, the assay gave nd, 2.44, 3.41 (mean 2.93). Variant F27H R57V K65C gave nd, nd, nd. Variant G33F I34L R57W showed 3.42, nd, nd.

Variant S35L S53M R57K showed nd, nd, nd. Variant G26C Y52K R57T showed nd, nd, nd. Variant R57Q V64T S107R showed nd, nd, nd. With R57E R100V T104Y the result was nd, nd, 4.93. Variant R57M R100E F105V showed 3.76, nd, 3.23 (mean 3.50). Variant F27H D54C R57F showed nd, nd, nd. With V50W S53P R57V the result was 4.16, 4.38, 4.79 (mean 4.45).

Variant S31N R57C F59Q showed nd, nd, nd. With R57C A101E G103W the result was 3.44, nd, nd. Variant L29W R57Y A101H gave nd, nd, nd. Variant S53I G55S R57P gave nd, nd, nd. With R56N R57P S63D the result was nd, nd, nd.

The opening 4 entries, copied out:

The variant R57N Y60R K65M gave nd, 4.13, nd.
The variant R57L Y60W G103M gave 5.88, 3.90, nd (mean 4.89).
The variant S31D R57Q A101Q gave 1.35, 1.45, 1.30 (mean 1.36).
The variant L29D R56M R57F gave nd, nd, nd.

Background: pairings of library AAYL49 with three empty control strains gave a value in 15% of cases (median 4.06, 5th percentile 2.83). Values in that range, when seen in few replicates, are hard to tell from nonspecific mating.